We go through one compound from ChEMBL document CHEMBL3108713, “Identification of ML251, a Potent Inhibitor of T. brucei and T. cruzi Phosphofructokinase” (ACS Med Chem Lett, 2014).

The target in the assay is T1, ATP-dependent 6-phosphofructokinase (Trypanosoma brucei, UniProt O15648).
T1 sequence (O15648 whole entry): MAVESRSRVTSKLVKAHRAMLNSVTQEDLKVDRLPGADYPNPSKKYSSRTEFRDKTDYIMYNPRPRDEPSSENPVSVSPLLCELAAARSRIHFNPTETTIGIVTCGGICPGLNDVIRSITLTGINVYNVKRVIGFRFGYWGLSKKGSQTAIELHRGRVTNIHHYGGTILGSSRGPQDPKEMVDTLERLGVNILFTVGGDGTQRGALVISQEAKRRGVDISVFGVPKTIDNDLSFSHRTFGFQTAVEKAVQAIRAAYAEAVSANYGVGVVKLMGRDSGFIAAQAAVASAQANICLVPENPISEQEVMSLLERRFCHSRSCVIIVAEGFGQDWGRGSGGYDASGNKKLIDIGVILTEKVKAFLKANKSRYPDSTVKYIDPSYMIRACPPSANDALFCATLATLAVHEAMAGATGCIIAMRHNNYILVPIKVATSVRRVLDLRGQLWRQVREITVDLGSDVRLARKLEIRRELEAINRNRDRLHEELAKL
As to the kind of experiment: Inhibition of Trypanosoma brucei PFK-mediated ADP production using ATP/fructose-6-phosphate as substrate by luciferase based luminescence assay. In a few lines:
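Recombinant enzyme; ADP formed by PFK detected with modified luciferase (ADP-Glo) luminescent end-point in 1536-well format.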

pIC50: −log10 of the molar value. Bounds are passed on as bounds.

As usually defined, the pIC50 is the negative decadic logarithm of the IC50, by convention in mol/L. Turning to `Cc1cc(NS(=O)(=O)c2ccc(N)cc2)no1` [SULFAMETHOXAZOLE], the pIC50 was < 4.24.
